Data on 1 substance can be found in patent US20260115305A1, “LINKERS, CONJUGATES AND APPLICATIONS THEREOF” (GENEQUANTUM HEALTHCARE (SUZHOU) CO., LTD., priority 2022, published 2026).

Usually T/C stands for the ratio of treated to control. One may read the TGI as the reduction of tumour growth relative to the control group.

The conditions of data set [1]: patients; cited from earlier work.
A further data set concerns JIMT-1 tumor cells. The data set can be described thus: Effect of ADC-2, ADC-3 and Enhertu in JIMT-1 CDX model in vivo. More on the design: species or system mouse. The settings on record: 5 mg/kg. How it is done: Treatments were started on day 10 after tumor inoculation when the average tumor volume reached 200 mm^3. The mean tumor volume of the vehicle control group reached 1,474 mm^3 on day 35 after administration. T/C and TGI values were calculated using tumor volume. The calculation formula is as follows: T/C %=TRTV/CRTV×100% (TRTV: RTV of the treatment group; CRTV: RTV of the vehicle control group). The relative tumor volume (RTV) was calculated based on the results of tumor measurement, and the calculation formula was RTV=Vt/V0, where V0 was the average tumor volume measured at the time of grouping (i.e., D0), Vt was the average tumor volume at one measurement, and TRTV and CRTV took the same day of data. Calculation of TGI (%): TGI (%)=[1−(average tumor volume at the end of administration of a treatment group−average tumor volume at the beginning of administration of the treatment group)/(average tumor volume at the end of treatment of the vehicle control group−the average tumor volume at the beginning of treatment of the vehicle control group)]×100%.

As to Enhertu, the interstitial lung disease result in data set [1] is recorded as “more than 10%”. Moreover, in the data set on JIMT-1 tumor cells (FIG. 3), the “antitumor activity in JIMT-1 model” value is on record as “significant antitumor activity”. Further, the mean tumor volume in the data set with JIMT-1 tumor cells (day 35) came to 494 mm^3. Also, in the data set with JIMT-1 tumor cells (day 35 after administration), the T/C worked out at 33.51% and the TGI was 76.90%.
